Patent publication US5283236A, “Systemic delivery of polypeptides through the eye” (Orbon Corporation, priority 1992, dated 1994)

Tests used:
[1] = 6 hr; for Residual amount of glucagon remaining in tissues, % of instilled, Total / Residual amount of glucagon remaining in tissues, Amount, Total: Total of eye tissues
[2] = Peptides remaining in eye tissues at the end of 12 hr experiment (Example 5); type: in vivo, New Zealand white female rabbits; settings: for Residual amount of glucagon remaining in tissues, % of instilled, Total / Residual amount of glucagon remaining in tissues, Amount, Total: TOTAL of eye tissues
[3] = Blood concentration of TRH, LHRH, glucagon after ocular or i.v. administration (Example 5)
Source text: The concentrations of peptides in the blood were expressed in ng/ml.

[4] = Blood glucagon concentration after ocular or i.v. glucagon (Example 3)

Substance: Glucagon
- share of eye-tissue glucagon remaining in the cornea ([1]; 0.2% solution): 71%
- total glucagon remaining in the eye tissues except cornea, of quantity instilled ([1]; 0.2% solution): 0.105%
- share of eye-tissue glucagon remaining in the cornea ([1]; 1% solution): 84%
- total glucagon remaining in the eye tissues except cornea, of quantity instilled ([1]; 1% solution): 0.103%
- share of eye-tissue glucagon remaining in the cornea ([1]; 5% solution): 87%
- total glucagon remaining in the eye tissues except cornea, of quantity instilled ([1]; 5% solution): 0.123%
- Residual amount of glucagon remaining in tissues, % of instilled ([1]; Choroid, 0.2% glucagon): 0.0042 ± 0.0011%
- Residual amount of glucagon remaining in tissues, % of instilled ([1]; Choroid, 1% glucagon): 0.0052 ± 0.0018%
- Residual amount of glucagon remaining in tissues, % of instilled ([1]; Choroid, 5% glucagon): 0.0046 ± 0.0011%
- Residual amount of glucagon remaining in tissues, % of instilled ([1]; Ciliary-Body, 0.2% glucagon): 0.0074 ± 0.0025%
- Residual amount of glucagon remaining in tissues, % of instilled ([1]; Ciliary-Body, 1% glucagon): 0.0102 ± 0.0031%
- Residual amount of glucagon remaining in tissues, % of instilled ([1]; Ciliary-Body, 5% glucagon): 0.0123 ± 0.0031%
- Residual amount of glucagon remaining in tissues, % of instilled ([1]; Cornea, 0.2% glucagon): 0.2565 ± 0.0860%
- Residual amount of glucagon remaining in tissues, % of instilled ([1]; Cornea, 1% glucagon): 0.5260 ± 0.1460%
- Residual amount of glucagon remaining in tissues, % of instilled ([1]; Cornea, 5% glucagon): 0.7930 ± 0.2101%
- Residual amount of glucagon remaining in tissues, % of instilled ([1]; Iris, 0.2% glucagon): 0.0202 ± 0.0080%
- Residual amount of glucagon remaining in tissues, % of instilled ([1]; Iris, 1% glucagon): 0.0309 ± 0.0103%
- Residual amount of glucagon remaining in tissues, % of instilled ([1]; Iris, 5% glucagon): 0.0322 ± 0.0073%
- Residual amount of glucagon remaining in tissues, % of instilled ([1]; Lens, 0.2% glucagon): 0.0701 ± 0.0302%
- Residual amount of glucagon remaining in tissues, % of instilled ([1]; Lens, 1% glucagon): 0.0542 ± 0.0143%
- Residual amount of glucagon remaining in tissues, % of instilled ([1]; Lens, 5% glucagon): 0.0697 ± 0.0169%
- Residual amount of glucagon remaining in tissues, % of instilled ([1]; Retina, 0.2% glucagon): 0.0028 ± 0.0007%
- Residual amount of glucagon remaining in tissues, % of instilled ([1]; Retina, 1% glucagon): 0.0025 ± 0.0008%
- Residual amount of glucagon remaining in tissues, % of instilled ([1]; Retina, 5% glucagon): 0.0045 ± 0.0019%
- Residual amount of glucagon remaining in tissues, % of instilled, Total ([1]; 0.2% glucagon): 0.3612%
- Residual amount of glucagon remaining in tissues, Amount, Total ([1]; 0.2% glucagon): 180.64 ng
- Residual amount of glucagon remaining in tissues, % of instilled, Total ([1]; 1% glucagon): 0.6290%
- Residual amount of glucagon remaining in tissues, Amount, Total ([1]; 1% glucagon): 1572.46 ng
- Residual amount of glucagon remaining in tissues, % of instilled, Total ([1]; 5% glucagon): 0.9163%
- Residual amount of glucagon remaining in tissues, Amount, Total ([1]; 5% glucagon): 11452.55 ng
- Residual amount of glucagon remaining in tissues, % of instilled ([2]; Choroid, 1% glucagon): 0.0056 ± 0.0030%
- Residual amount of glucagon remaining in tissues, % of instilled ([2]; Choroid, 5% glucagon): 0.0106 ± 0.0033%
- Residual amount of glucagon remaining in tissues, % of instilled ([2]; Ciliary-Body, 1% glucagon): 0.0050 ± 0.0028%
- Residual amount of glucagon remaining in tissues, % of instilled ([2]; Ciliary-Body, 5% glucagon): 0.0062 ± 0.0019%
- Residual amount of glucagon remaining in tissues, % of instilled ([2]; Cornea, 1% glucagon): 0.0818 ± 0.0427%
- Residual amount of glucagon remaining in tissues, % of instilled ([2]; Cornea, 5% glucagon): 0.0880 ± 0.0370%
- Residual amount of glucagon remaining in tissues, % of instilled ([2]; Iris, 1% glucagon): 0.0067 ± 0.0043%
- Residual amount of glucagon remaining in tissues, % of instilled ([2]; Iris, 5% glucagon): 0.0098 ± 0.0032%
- Residual amount of glucagon remaining in tissues, % of instilled ([2]; Lens, 1% glucagon): 0.0449 ± 0.0232%
- Residual amount of glucagon remaining in tissues, % of instilled ([2]; Lens, 5% glucagon): 0.0555 ± 0.0255%
- Residual amount of glucagon remaining in tissues, % of instilled ([2]; Retina, 1% glucagon): 0.0064 ± 0.0033%
- Residual amount of glucagon remaining in tissues, % of instilled ([2]; Retina, 5% glucagon): 0.0068 ± 0.0025%
- Residual amount of glucagon remaining in tissues, % of instilled, Total ([2]; 1% glucagon): 0.1504%
- Residual amount of glucagon remaining in tissues, Amount, Total ([2]; 1% glucagon): 376.09 ng
- Residual amount of glucagon remaining in tissues, % of instilled, Total ([2]; 5% glucagon): 0.1769%
- Residual amount of glucagon remaining in tissues, Amount, Total ([2]; 5% glucagon): 2210.57 ng
- blood glucagon concentration remained at ([3]; 0.625 ug glucagon i.v., for 5 hrs): 0.27 to 0.3 ng/mL
- blood glucagon plateau concentration ([3]; 1% glucagon instilled, plateau in 3 hrs): 60 ng/mL
- blood glucagon concentration reached ([3]; 5% glucagon instilled, in 4 hrs): 155 ng/mL
- blood glucagon plateau concentration ([4]; 25 ul of 1% glucagon instilled, plateau in 2 hrs): 37 ng/mL
- blood concentration of glucagon reached ([4]; 25 ul of 5% glucagon (1250 ug) instilled, rising over 6 hrs): 130 ng/mL

Like-named read-outs stand apart in the source and are kept apart here.
